From ChEMBL document CHEMBL1287774, “Discovery of new azaindole-based PI3Kα inhibitors: apoptotic and antiangiogenic effect on cancer cells” (Bioorg Med Chem Lett, 2010) come the findings set out here.

Amino acid sequences for entries named in this document (tags omitted).
UniProt P42336, whole entry: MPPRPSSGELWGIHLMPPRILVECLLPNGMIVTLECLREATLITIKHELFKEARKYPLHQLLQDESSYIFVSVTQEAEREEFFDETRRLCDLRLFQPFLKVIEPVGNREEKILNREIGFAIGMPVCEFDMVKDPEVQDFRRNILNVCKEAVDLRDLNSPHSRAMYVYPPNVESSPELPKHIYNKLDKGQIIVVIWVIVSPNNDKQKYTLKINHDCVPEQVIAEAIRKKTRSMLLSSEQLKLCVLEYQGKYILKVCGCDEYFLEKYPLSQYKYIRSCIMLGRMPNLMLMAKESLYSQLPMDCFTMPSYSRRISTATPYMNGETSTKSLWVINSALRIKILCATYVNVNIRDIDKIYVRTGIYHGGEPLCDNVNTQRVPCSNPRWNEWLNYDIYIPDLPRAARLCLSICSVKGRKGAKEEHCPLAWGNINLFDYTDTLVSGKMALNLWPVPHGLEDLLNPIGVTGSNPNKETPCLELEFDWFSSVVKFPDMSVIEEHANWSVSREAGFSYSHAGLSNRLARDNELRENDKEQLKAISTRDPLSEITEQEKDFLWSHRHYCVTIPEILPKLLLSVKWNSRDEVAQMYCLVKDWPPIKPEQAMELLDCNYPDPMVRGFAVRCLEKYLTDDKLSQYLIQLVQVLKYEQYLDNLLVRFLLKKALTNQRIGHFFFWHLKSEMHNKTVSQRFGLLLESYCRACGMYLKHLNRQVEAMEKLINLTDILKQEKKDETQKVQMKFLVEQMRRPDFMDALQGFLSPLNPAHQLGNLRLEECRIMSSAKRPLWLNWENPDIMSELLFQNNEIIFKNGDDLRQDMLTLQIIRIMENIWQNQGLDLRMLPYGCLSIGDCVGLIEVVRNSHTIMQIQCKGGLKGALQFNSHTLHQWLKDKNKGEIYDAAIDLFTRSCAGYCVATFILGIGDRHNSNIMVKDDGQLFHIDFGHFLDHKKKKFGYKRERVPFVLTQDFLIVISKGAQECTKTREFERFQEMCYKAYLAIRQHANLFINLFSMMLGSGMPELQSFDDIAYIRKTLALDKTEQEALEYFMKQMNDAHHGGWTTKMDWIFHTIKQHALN

In this experiment the target is Phosphatidylinositol 4,5-bisphosphate 3-kinase catalytic subunit alpha isoform (Homo sapiens, UniProt P42336). As to the kind of experiment: Inhibition of PI3Kalpha.

The IC50 is the concentration needed to halve the response being measured.

Molecule `COc1ccc(-c2c[nH]c3ncc(-c4cnc(N)c(NS(=O)(=O)N5CCOCC5)c4)cc23)cc1OC` displayed an IC50 of 16 nM.
